Experimental data reported in patent publication US20020076827A1, “Methods for diagnosing thyroid conditions and for monitoring thyroxine therapy” (priority 2000, published 2002).

Assays:
[1] = Stability of TSH in urine and serum; assay type: physicochemical; conditions: room temperature and refrigerator temperature, BioDx stabilizing solution added
Method: In the laboratory, those urines were centrifuged at 1,000 g for 10 min to remove particulate matter and volume, pH and specific gravity determined. For storage, a proprietary mixture containing buffer and preservatives (BioDx buffer) was added. This solution was shown not to interfere with determinations. Specimens from both studies were stored similarly at −20 degrees Centigrade.
The stability of TSH in urine and serum was determined at room temperature, 4 C. and −20 C. BioDx stabalizing solution was added to each sample (FIG. 3). […] In fact, more differences were attributable to the instability of the instrument than the samples.

[2] = Stability of urine standard sub-pools measured monthly; assay type: physicochemical; conditions: 2 ml vials stored at -20 degrees Centigrade
Method: The BioDx urinary standards have precision coefficients similar to those reported by Abbott for their serum standards. In the second study, a standard pool was established by collecting urine from two volunteers who were judged to be normal by blood measurements of TSH and thyroid hormones. […] These sub-pools were aliquoted into 2 ml vials and stored as above.

## TSH: Human thyroid stimulating hormone, a glycoprotein of two subunits secreted by the pituitary gland
[1]
  stability of TSH: stable for over a year
[2]
  concentration in urine standard sub-pools over time: unchanged for over a year
